Tested on: P. falciparum Cam3.II lines
Assay: Isobologram analyses (fixed-ratio drug combinations)
Type: cell-based, Plasmodium falciparum
Conditions: combined with WLL; Trophozoites, 3 hr exposure; Cam3.II K13C580Y
Procedure: Assays were performed with fixed ratios of drug combinations (1:0, 4:1, 2:1, 1:1, 1:2, 1:4, and 0:1), tested in duplicate. Combinations were prepared from 16×IC50 drug stocks and tested across a range of two-fold dilutions. Assays were conducted with asynchronous cultures exposed for 72 hr or with tightly synchronized rings or trophozoites (tested at 0–3 hr or 24–27 hr post-invasion, respectively) exposed for 3 hr. Post-pulse drug washouts were conducted as described above for in vitro determination of IC50 levels. IC50 values were derived for each compound tested alone, and fractional IC50 (FIC50) values were determined for each compound tested in combination (FIC50 = […]) and plotted for each drug combination. For each combination, the mean of the sums of FIC50 values at each combination (mean ΣFIC50) was also calculated and the results illustrated using heat maps.

CN(C)c1ccc2nc3ccc(=[N+](C)C)cc-3sc2c1 [MB, methylene blue]
Mean of the sums of FIC50 (mean ΣFIC50): 1.01
